Data taken from ChEMBL document CHEMBL4002585, “Novel CLK1 inhibitors based on N-aryloxazol-2-amine skeleton - A possible way to dual VEGFR2 TK/CLK ligands” (Eur J Med Chem, 2017).

By UniProt entry, the sequences of proteins in these tests, tags left out. Where a name states a change or a piece, a line headed by the entry shows the natural chain unless it says otherwise.
UniProt P49761: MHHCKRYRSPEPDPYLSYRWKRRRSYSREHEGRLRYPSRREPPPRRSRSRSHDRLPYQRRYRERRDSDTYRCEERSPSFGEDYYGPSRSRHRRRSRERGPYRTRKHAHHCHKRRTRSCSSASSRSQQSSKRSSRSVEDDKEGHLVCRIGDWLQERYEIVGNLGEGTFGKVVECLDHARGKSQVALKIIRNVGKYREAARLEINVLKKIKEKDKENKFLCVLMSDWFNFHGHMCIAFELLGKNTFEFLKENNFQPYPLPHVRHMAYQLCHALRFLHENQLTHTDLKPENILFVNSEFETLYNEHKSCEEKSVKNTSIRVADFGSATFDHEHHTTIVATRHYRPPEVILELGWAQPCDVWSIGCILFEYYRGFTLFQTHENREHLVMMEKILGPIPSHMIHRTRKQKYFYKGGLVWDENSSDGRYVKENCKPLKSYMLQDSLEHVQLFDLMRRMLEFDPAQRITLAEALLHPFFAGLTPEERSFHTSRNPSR

Biological target: Dual specificity protein kinase CLK3 (Homo sapiens, UniProt P49761)
Test: Inhibition of human CLK3 (275 to 632 residues) expressed in Escherichia coli BL21(DE3) preincubated for 10 mins followed by substrate addition by pyruvate kinase and lactate dehydrogenase coupled enzyme assay

## CCOC(=O)c1c(C(C#N)=CN)c2ccc(Cl)c(Cl)c2n1C
  IC50: 530 nM
